Consider 5 molecules from US20230011131A1, “NOVEL COMPOUND FOR INHIBITING HISTONE ACETYLTRANSFERASE P300 AND ANTI-FIBROSIS COMPOSITION COMPRISING SAME” (REFURE LIFE SCIENCE INC., priority 2019, published 2023).

Sequences of proteins named here, by UniProt entry; tags and fusion partners are left off.
UniProt Q09472, whole entry: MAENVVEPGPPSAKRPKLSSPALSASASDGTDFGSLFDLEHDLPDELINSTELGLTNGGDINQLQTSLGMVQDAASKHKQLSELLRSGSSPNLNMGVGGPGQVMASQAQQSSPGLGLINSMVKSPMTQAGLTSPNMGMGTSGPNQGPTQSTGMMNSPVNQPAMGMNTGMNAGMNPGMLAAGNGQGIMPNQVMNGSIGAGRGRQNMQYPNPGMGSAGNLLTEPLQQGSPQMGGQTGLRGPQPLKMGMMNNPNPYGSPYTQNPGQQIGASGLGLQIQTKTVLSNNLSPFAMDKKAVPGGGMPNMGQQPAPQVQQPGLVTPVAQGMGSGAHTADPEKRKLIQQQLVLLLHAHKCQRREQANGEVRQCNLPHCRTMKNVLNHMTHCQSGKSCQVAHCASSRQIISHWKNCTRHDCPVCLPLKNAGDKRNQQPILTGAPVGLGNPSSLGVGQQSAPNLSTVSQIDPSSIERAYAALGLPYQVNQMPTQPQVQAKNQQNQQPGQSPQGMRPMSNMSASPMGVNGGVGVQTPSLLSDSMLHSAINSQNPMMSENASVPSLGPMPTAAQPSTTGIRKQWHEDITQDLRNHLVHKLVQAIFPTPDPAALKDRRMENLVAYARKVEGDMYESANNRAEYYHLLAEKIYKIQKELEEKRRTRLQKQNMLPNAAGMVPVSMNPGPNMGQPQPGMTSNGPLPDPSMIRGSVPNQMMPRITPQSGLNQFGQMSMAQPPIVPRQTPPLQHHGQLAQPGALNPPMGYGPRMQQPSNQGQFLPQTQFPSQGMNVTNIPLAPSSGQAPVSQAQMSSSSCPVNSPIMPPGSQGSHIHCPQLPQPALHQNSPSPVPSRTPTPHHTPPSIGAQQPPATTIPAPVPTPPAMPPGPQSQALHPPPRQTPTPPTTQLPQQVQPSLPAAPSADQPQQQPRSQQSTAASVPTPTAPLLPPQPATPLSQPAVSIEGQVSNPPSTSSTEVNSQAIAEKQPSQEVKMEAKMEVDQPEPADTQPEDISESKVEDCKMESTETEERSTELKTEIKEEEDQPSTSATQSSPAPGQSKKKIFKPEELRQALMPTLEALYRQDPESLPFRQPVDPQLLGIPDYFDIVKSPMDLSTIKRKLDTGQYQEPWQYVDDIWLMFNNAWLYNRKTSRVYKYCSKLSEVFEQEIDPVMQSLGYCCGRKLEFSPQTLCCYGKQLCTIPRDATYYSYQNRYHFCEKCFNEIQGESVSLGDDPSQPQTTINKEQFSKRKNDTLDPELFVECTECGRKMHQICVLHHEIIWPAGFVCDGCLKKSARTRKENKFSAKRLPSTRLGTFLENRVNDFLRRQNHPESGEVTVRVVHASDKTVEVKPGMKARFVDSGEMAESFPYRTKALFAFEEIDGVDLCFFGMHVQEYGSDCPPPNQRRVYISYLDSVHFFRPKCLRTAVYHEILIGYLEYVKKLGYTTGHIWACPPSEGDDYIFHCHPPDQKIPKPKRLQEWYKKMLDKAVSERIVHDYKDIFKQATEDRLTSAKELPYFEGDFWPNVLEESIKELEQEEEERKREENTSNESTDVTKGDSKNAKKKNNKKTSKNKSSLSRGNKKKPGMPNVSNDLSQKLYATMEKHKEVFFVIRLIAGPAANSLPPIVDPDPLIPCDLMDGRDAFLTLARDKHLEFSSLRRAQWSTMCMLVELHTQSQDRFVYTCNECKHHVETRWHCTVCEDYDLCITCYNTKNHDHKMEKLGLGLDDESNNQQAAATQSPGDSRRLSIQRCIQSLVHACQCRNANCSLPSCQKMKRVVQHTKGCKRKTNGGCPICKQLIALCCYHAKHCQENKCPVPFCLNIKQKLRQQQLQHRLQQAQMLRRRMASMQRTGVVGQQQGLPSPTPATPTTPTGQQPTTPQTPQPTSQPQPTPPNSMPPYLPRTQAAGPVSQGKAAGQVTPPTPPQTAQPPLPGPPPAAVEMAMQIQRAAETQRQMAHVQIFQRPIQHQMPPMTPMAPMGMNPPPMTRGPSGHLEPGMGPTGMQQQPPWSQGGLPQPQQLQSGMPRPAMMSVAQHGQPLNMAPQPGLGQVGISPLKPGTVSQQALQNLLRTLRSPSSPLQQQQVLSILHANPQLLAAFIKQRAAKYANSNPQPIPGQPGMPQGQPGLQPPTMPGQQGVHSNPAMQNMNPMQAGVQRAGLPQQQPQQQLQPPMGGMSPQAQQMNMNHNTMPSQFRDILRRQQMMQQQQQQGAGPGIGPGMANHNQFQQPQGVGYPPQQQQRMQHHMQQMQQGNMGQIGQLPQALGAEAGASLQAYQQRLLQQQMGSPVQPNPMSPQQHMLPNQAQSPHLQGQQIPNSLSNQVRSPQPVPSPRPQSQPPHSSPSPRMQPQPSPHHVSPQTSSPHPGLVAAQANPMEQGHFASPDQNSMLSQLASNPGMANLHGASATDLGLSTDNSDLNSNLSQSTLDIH

SMILES strings stand for the structures.

This experiment deals with HAT p300 (histone acetyltransferase p300) (Homo sapiens, UniProt Q09472). As to the kind of experiment: HAT activity kit (Biovision K332): inhibition of HAT activity of p300. It counts as biochemical. The conditions noted are these: read-out: IC50 (μM), inhibition of HAT activity; secondary screening; 0.5, 1, 10 and 100 μM. Here is the method: Candidates 1 to 67, which are HAT inhibitors manufactured based on the PCAF structure, and HAT-24, HAT-26, and HAT-28 were diluted to 100 μM, and the degree of inhibition of HAT activity of p300 (inhibitory activity) was then determined using a kit for measuring HAT activity (Biovision, Cat No. K332, U.S.A) according to the method provided by the manufacturer. Here, the tissue was treated with C646 (HAT inhibitor) as a positive control.
Candidates 1 to 14 having a good HAT activity inhibitory effect in Section were diluted to concentrations of 0.5 μM, 1 μM, 10 μM, and 100 μM. Thereafter, the degree of inhibition of HAT activity was determined in the same manner as in Section.
Each of Synthesis Examples 1 to 24 was diluted to 100 μM, and the degree of inhibition of HAT p300 activity was determined in the same manner as in Section. Here, the tissues were treated with C646 and Candidate 12 (HAT-12) as the control instead of Synthesis Examples 1 to 24.

With `COc1cc(/C=C/C(=O)c2cc(OC)c(OC)c(OC)c2)cc(Br)c1OCc1cccc(Cl)c1`, the concentration for half-maximal inhibition (IC50) – broadly, the point on the concentration scale where inhibition reaches its midpoint – turned out to be 41.7 µM.

As for `COc1cc(/C=C/C(=O)c2cc(OC)c(OC)c(OC)c2)cc(Cl)c1OCc1cccc(C(N)=O)c1`, the IC50 is 32.8 µM. Then `COc1cc(/C=C/C(=O)c2cc(OC)c(OC)c(OC)c2)cc(Cl)c1OCc1cccc(Cl)c1`, with 13.1 µM; and `COc1cc(/C=C/C(=O)c2cc(OC)c(OC)c(OC)c2)cc(Br)c1OCc1cccc(C(N)=O)c1`, with 35.8 µM; and `COc1cc(/C=C/C(=O)c2cc(OC)c(OC)c(OC)c2)cc(I)c1OCc1cccc(Cl)c1`, with 0.953 µM.
